Data set [1] is described as follows: Toxico-pharmacological index (LD50 / effective dose in catatonia). The settings on record: in vivo.
For data set [2], the system named is reserpine-induced and neuroleptic-induced catatonia. Described as above.

The values below come from patent US4048334A, “Active derivatives of methylamino in therapeutic compositions and methods of use” (priority 1974, dated 1977).

On to `CCCC(N)(CCC)CCC`, for which the selectivity ratio in data set [1] was no less than 33.

Turning to `CCCC(N)(CCC)CCC` [Compound 1], the “Index LD50/ED100” value in data set [2] (ED100: 100% inhibition of the catatonia) is reported as 20. Moreover, the “toxico-pharmacological index LD50/ED50” value in data set [2] (curative treatment, neuroleptic-induced catatonia) is 20.
